Assay results from paper PMC3858552, “The discovery of potent ribosomal S6 kinase inhibitors by high-throughput screening and structure-guided drug design” (Oncotarget, 2013).
pIC50: −log10 of the molar value. Read-outs that look alike come from different tables or passages of the source.

Sequences of proteins named here, by UniProt entry; tags and fusion partners are left off. Residues count along the entry.
UniProt P23443, 1-421 T412E limits assumed: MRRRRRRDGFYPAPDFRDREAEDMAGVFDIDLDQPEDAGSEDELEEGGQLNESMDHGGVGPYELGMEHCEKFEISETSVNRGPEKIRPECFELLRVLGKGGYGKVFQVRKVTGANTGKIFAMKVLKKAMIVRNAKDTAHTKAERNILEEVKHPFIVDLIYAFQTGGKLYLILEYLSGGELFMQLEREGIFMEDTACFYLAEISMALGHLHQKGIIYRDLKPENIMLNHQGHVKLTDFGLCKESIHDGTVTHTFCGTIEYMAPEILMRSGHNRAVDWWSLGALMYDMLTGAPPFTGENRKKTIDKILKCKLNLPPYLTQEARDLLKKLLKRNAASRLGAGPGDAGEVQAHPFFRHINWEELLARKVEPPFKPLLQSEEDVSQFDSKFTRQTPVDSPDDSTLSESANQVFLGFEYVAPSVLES

What was measured:
[1] = molecular target: S6K1 (Homo sapiens, UniProt P23443, T412E); assay: S6K1 DELFIA phosphorylation assay (IC50 of screening hits); conditions: for activity against S6K1 (in words): carboxamidobenzimidazole analogues; for pIC50: read-out: S6K1 IC50, repurchased samples; for LE (ligand efficiency): calculated using the mean IC50 values
[2] = tested on: poly(ADP-ribose) polymerase (PARP); conditions: cited from earlier work
[3] = Table 1, confirmation DELFIA assay, mean ± standard error, duplicate, >100 values single measurement

SMILES	activity against S6K1 (in words) [1]	pIC50 [1, 3]	LE (ligand efficiency) ([1]; Table 1)	pIC50 ([1]; HTS hits)	PARP activity [2]
CNC(=O)c1cccc2[nH]c(-c3ccc(O)cc3)nc12	inactive	< 4.00	–	–	–
NC(=O)c1ccc2[nH]c(-c3ccc(O)cc3)nc2c1	inactive	< 4.00	–	–	lacking PARP activity
NC(=O)c1cccc2[nH]c(-c3cccc(O)c3)nc12	–	5.98	0.44	–	–

More lines, main results first:

activity against S6K1 (in words) [1]	pIC50 [1, 3]	LE (ligand efficiency) ([1]; Table 1)	pIC50 ([1]; HTS hits)	SMILES	PARP activity [2]
loss of activity	< 4.00	–	–	O=C(O)c1cccc2[nH]c(-c3ccc(O)cc3)nc12	inactive against PARP
–	5.00	0.33	4.99	COc1cc(-c2nc3c(C(N)=O)cccc3[nH]2)ccc1O	–
